Data as given in US20110135657A1 (published 2011).

Molecular target: human FGF21 receptor (FGF21R): full length human FGFR1c and full length human β-Klotho co-expressed at the … (human, UniProt P11362; Q86Z14)
Experiment: cell-based or functional assay

B1: 16H7 variant, heavy chain V24F + I83T (antibody, human IgG2, lambda)
heavy: QVTLKESGPVLVKPTETLTLTCTFSGFSLNNARMGVSWIRQPPGKALEWLAHIFSNDEKSYSTSLKSRLTISKDTSKSQVVLTMTNMDPVDTATYYCARSVVTGGYYYDGMDVWGQGTTVTVSSASTKGPSVFPLAPCSRSTSESTAALGCLVKDYFPEPVTVSWNSGALTSGVHTFPAVLQSSGLYSLSSVVTVPSSNFGTQTYTCNVDHKPSNTKVDKTVERKCCVECPPCPAPPVAGPSVFLFPPKPKDTLMISRTPEVTCVVVDVSHEDPEVQFNWYVDGVEVHNAKTKPREEQFNSTFRVVSVLTVVHQDWLNGKEYKCKVSNKGLPAPIEKTISKTKGQPREPQVYTLPPSREEMTKNQVSLTCLVKGFYPSDIAVEWESNGQPENNYKTTPPMLDSDGSFFLYSKLTVDKSRWQQGNVFSCSVMHEALHNHYTQKSLSLSPGK
light: SYVLTQPPSVSVAPGQTARITCGGNNIGSESVHWYQQKPGQAPVLVVYDDSDRPSGIPERFSGSNSGNTATLTISRVEAGDEADYYCQVWDGNSDHVVFGGGTKLTVLGQPKANPTVTLFPPSSEELQANKATLVCLISDFYPGAVTVAWKADGSPVKAGVETTKPSKQSNNKYAASSYLSLTPEQWKSHRSYSCQVTHEGSTVEKTVAPTECS
- EC50 (nM), Erk-phosphorylation, human adipocyte assay: 0.37 nM
